From patent publication US7611693B2, “Mechanism-based targeted pancreatic beta cell imaging and therapy” (Board of Regents, The Univerisity of Texas System, priority 2003, dated 2009) come the findings set out here.

This series is described as follows: Animal studies: acute toxicity at the given doses. Format: in vivo. From the text: The present disclosure addresses at least in part some deficiencies in the prior art by providing novel DTPA-antidiabetic conjugates useful for imaging beta-cell function. Through binding of radiolabeled conjugates, such as ^99mTc-DTPA-antidiabetic conjugates, for example, to pancreatic beta receptors, detectable by gamma scintigraphy, pancreatic function is monitored. Four DTPA-antidiabetic conjugates have been synthesized and evaluated. […] These agents are labeled with isotopes in order to assess beta cell function in diabetic or insulinoma patients both pre- and post-treatment. These compositions and methods are useful to provide early diagnosis as well as monitoring of response of pancreatic disease during treatment.

For the substance DTPA-Glipizide, the acute toxicity entry is “no acute toxicity”.
